Assay [1] deals with human Retinoic Acid Receptor gamma (RARg), RARG (gene 5916) (UniProt P13631). The assay can be described thus: ATG_RARg_TRANS: Attagene TRANS-FACTORIAL HepG2 Assay for human Retinoic Acid Receptor gamma (RARg) (AID 2283009). In short, it runs like this: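 Readout: reporter transcript levels via RT-PCR, 6-FAM primer-extension labelling, HpaI digestion and capillary electrophoresis. Cells: HepG2 carrying transfected RARg-GAL4 chimera plus UAS reporter set. Dosing 24 h; DMSO negative control.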

Protein sequences, listed by entry. Tags and fused reporters are not part of them. Lines headed by an entry give the natural chain unless they say otherwise; changes in a name come on top.
UniProt P13631, whole entry, looked up: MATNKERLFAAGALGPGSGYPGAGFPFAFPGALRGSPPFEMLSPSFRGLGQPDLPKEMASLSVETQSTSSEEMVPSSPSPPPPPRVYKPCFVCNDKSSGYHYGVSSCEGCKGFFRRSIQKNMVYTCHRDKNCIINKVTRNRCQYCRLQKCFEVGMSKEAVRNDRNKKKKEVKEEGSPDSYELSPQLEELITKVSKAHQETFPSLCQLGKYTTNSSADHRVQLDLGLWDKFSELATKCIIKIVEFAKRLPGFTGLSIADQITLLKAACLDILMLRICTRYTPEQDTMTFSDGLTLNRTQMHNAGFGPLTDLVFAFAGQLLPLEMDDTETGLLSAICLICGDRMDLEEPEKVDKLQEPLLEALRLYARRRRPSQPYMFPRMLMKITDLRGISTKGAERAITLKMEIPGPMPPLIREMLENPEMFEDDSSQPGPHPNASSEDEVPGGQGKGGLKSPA
UniProt P51449: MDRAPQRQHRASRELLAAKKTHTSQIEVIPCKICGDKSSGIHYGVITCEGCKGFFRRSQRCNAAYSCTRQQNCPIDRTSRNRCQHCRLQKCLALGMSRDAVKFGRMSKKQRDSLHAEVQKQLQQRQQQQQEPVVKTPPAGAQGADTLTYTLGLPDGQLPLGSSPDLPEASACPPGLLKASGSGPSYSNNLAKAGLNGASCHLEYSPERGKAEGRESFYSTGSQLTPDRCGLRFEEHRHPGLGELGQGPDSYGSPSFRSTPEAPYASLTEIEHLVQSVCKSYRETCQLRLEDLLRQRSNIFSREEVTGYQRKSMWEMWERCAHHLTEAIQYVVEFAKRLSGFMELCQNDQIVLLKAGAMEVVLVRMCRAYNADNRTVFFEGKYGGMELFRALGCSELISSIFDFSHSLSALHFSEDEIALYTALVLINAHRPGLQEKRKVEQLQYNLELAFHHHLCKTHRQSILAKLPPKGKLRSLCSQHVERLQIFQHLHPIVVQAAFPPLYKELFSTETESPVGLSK
UniProt P19793: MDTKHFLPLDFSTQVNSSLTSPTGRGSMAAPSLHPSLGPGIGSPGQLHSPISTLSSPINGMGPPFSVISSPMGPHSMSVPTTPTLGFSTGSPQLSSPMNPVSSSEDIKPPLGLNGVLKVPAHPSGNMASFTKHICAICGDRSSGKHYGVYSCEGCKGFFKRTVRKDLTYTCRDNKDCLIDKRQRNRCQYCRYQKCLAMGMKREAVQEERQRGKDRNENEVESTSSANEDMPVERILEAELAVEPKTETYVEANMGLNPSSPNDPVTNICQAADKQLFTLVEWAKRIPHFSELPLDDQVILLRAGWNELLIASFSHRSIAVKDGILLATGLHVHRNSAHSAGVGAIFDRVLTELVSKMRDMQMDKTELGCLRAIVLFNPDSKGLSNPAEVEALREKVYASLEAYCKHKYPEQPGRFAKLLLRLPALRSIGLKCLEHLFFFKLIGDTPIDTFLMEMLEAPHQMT
UniProt P28702: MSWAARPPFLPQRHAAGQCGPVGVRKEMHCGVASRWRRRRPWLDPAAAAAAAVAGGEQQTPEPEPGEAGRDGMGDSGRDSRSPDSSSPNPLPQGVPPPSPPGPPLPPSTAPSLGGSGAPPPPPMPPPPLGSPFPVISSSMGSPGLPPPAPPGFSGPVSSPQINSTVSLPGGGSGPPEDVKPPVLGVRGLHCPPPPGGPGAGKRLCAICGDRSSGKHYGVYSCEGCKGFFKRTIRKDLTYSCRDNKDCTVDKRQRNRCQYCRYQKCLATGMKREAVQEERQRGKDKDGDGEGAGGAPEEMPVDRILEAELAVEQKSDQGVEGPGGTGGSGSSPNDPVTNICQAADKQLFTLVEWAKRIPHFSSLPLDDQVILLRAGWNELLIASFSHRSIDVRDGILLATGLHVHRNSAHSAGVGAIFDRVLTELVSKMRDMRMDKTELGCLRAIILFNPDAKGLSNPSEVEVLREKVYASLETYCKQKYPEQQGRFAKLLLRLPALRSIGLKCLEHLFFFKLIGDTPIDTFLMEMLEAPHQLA
UniProt P16581: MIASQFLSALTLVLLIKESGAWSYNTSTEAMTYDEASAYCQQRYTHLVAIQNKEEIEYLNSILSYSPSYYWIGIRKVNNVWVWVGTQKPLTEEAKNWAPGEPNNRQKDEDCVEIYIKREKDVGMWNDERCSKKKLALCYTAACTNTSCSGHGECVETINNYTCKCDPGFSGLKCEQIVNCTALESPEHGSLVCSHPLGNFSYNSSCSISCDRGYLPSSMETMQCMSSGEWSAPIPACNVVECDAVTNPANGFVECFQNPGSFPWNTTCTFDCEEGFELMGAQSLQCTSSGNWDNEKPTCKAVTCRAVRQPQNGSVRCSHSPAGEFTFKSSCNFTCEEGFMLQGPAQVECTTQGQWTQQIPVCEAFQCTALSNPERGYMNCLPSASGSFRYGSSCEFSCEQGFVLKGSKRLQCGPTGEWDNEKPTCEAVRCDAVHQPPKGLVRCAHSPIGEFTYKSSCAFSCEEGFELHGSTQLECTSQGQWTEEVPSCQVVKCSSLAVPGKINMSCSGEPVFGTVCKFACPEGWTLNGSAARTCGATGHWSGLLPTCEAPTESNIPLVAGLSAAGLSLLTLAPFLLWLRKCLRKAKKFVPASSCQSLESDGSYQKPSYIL
UniProt P10827: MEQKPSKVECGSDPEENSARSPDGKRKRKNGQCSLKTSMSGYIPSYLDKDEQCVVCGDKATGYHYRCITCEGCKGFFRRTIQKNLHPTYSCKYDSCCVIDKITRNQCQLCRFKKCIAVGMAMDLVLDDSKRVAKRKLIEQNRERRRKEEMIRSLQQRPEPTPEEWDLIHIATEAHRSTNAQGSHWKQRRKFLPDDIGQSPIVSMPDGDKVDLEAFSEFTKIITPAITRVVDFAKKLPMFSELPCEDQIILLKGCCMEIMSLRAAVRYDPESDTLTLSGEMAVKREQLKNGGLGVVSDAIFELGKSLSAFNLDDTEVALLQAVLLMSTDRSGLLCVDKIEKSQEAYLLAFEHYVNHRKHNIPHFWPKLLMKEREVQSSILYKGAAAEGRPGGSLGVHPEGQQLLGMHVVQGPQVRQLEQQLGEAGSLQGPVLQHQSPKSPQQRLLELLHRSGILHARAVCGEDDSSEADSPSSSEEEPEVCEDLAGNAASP

For assay [2], the target named is human RAR-related Orphan Receptor gamma (RORg), RORC (gene 6097) (UniProt P51449). The assay can be described thus: ATG_RORg_TRANS: Attagene TRANS-FACTORIAL HepG2 Assay for human RAR-related Orphan Receptor gamma (RORg) (AID 2283011). In short, it runs like this:
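First, HepG2 liver cells were transfected with GAL4-UAS-driven reporter constructs and the RORg-Gal4 fusion. Next, they were treated with chemical for 24 h. Finally, reporter mRNA was quantified by RT-PCR and capillary electrophoresis, with upward activity fitted against DMSO.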

Assay [3] has as its target Retinoic acid receptor RXR-alpha (Homo sapiens) (UniProt P19793). As to the kind of experiment: ATG_RXRa_TRANS: Attagene TRANS-FACTORIAL HepG2 Assay for human Retinoid X Receptor alpha (RXRa) (AID 2283012). In short, it runs like this:
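Read-out: fluorescent reporter-transcript fragments quantified by capillary electrophoresis after RT-PCR. Transiently transfected HepG2 cells carrying GAL4-UAS reporters and NR-GAL4 chimeras were exposed to chemical for 24 h; activity scored as increase over DMSO.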

Assay [4] has as its target human Retinoid X Receptor beta (RXRb), RXRB (gene 6257) (UniProt P28702). The assay can be described thus: ATG_RXRb_TRANS: Attagene TRANS-FACTORIAL HepG2 Assay for human Retinoid X Receptor beta (RXRb) (AID 2283013). The method, boiled down:
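Read-out: reporter mRNA induction via RT-PCR plus capillary electrophoresis fluorescence, analysed as signal increase relative to DMSO. Cells were human HepG2, transiently transfected with GAL4-UAS reporter constructs and chimeric receptor-Gal4 fusions, dosed for 24 h.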

Read-out in assay [5]: E-selectin (Homo sapiens) (UniProt P16581)
The assay can be described thus: BSK_3C_Eselectin: BioMAP Diversity Plus: 3C Assay for Eselectin Biomarker Activity (AID 2283015; active means hit-call score of the fitted dose curve at least 0.9, where 1 is the maximum; inactive means score below 0.9;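 on outcome: cell surface E-selectin protein quantified by ELISA 24 h after dosing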). To be noted: actives raise or lower the signal; primary human endothelial cells (HUVEC). The method, boiled down: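 ELISA read-out of E-selectin on endothelial monolayers after 24 h chemical treatment. Human umbilical vein primary cells served as the system, with DMSO defining baseline activity for bidirectional fitting.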

Read-out in assay [6]: Interleukin-1 alpha (IL1a), IL1A (gene 3552)
As to the kind of experiment: BSK_BE3C_IL1a: BioMAP Diversity Plus: BE3C Assay for Interleukin-1 alpha (IL1a) Biomarker Activity (AID 2283016; active means hit-call score of the fitted dose curve at least 0.9, where 1 is the maximum; inactive means score below 0.9). The settings on record: actives raise or lower the signal; primary human bronchial epithelial cells. The method, boiled down:
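ELISA read-out of IL-1a from human lung bronchial epithelial primary cells, 24 h post-dose. Gain or loss of signal fitted relative to DMSO negative control.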

Read-out in assay [7]: Monocyte Chemoattractant Protein-1 (MCP1), CCL2 (gene 6347)
The assay can be described thus: BSK_3C_MCP1: BioMAP Diversity Plus: 3C Assay for Monocyte Chemoattractant Protein-1 (MCP1) Biomarker Activity (AID 2283017; active means hit-call score of the fitted dose curve at least 0.9, where 1 is the maximum; inactive means score below 0.9). To be noted: actives raise or lower the signal; primary human endothelial cells (HUVEC). In short, it runs like this: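 ELISA read-out of MCP-1 from human umbilical vein endothelial cell cultures harvested 24 h post-dosing. Gain or loss of signal was fitted relative to DMSO.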

Read-out in assay [8]: Monocyte Chemoattractant Protein-1 (MCP1), CCL2 (gene 6347)
As to the kind of experiment: BSK_4H_MCP1: BioMAP Diversity Plus: 4H Assay for Monocyte Chemoattractant Protein-1 (MCP1) Biomarker Activity (AID 2283018; active means hit-call score of the fitted dose curve at least 0.9, where 1 is the maximum; inactive means score below 0.9). To be noted: actives raise or lower the signal; primary human endothelial cells (HUVEC). The method, boiled down: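 HUVEC primary cells, 24 h post-dose, MCP-1 by ELISA. Gain or loss of signal fitted bidirectionally vs DMSO baseline. Cytotoxicity: SRB stain (0.1% after 10% TCA fixation), read 560 nm, parallel cultures.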

Read-out in assay [9]: Human Leukocyte Antigen - DR isotype (HLADR), HLA-DRA (gene 3122)
As to the kind of experiment: BSK_3C_HLADR: BioMAP Diversity Plus: 3C Assay for Human Leukocyte Antigen - DR isotype (HLADR) Biomarker Activity (AID 2283019; active means hit-call score of the fitted dose curve at least 0.9, where 1 is the maximum; inactive means score below 0.9;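 on outcome: ELISA of cell-surface HLA-DR on HUVEC 24 h after dosing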). To be noted: actives raise or lower the signal; primary human endothelial cells (HUVEC). The method, boiled down:
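ELISA readout of surface HLA-DR on human umbilical vein endothelium, taken 24 h after chemical treatment. Gain- and loss-of-signal were both fitted relative to DMSO.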

For assay [10], the target named is human Thyroid Receptor alpha (THRa1), THRA (gene 7067) (UniProt P10827). As to the kind of experiment: ATG_THRa1_TRANS: Attagene TRANS-FACTORIAL HepG2 Assay for human Thyroid Receptor alpha (THRa1) (AID 2283014). The protocol: ATG_TRANS is a cell-based, multiplexed-readout assay that uses HepG2, a human liver cell line, with measurements taken at 24 hours after chemical dosing in a 24-well plate.ATG_THRa1_TRANS is one of 30 assay component(s) measured or calculated from the ATG_TRANS assay. It is designed to make measurements of mRNA induction, a form of inducible reporter, as detected with fluorescence intensity signals by Reverse transcription polymerase chain reaction (RT-PCR) and Capillary electrophoresis technology.Data from the assay component ATG_THRa1_TRANS was analyzed into 1 assay endpoint. This assay endpoint, ATG_THRa1_TRANS, was analyzed in the positive analysis fitting direction relative to DMSO as the negative control and baseline of activity. Using a type of inducible reporter, measures of mRNA for gain-of-signal activity can be used to understand the reporter gene at the transcription factor-level as they relate to the gene THRA. Furthermore, this assay endpoint can be referred to as a primary readout, because this assay has produced multiple assay endpoints where this one serves a reporter gene function. To generalize the intended target to other relatable targets, this assay endpoint is annotated to the nuclear receptor intended target family, where the subfamily is non-steroidal.
Human liver HepG2 cells are transiently transfected with multiple reporter transcription units (MRTUs) in 6-well plates using FuGene 6 reagent (Roche; 3 ml FuGene/1 mg DNA). The MRTU constructs are regulated by a cis-regulating element (promoter). […] A major difference between the CIS and TRANS system is that in CIS activities of endogenous TFs are measured, whereas the TRANS assay evaluates changes in activities of exogenous, chimeric NR-Gal4 proteins. […] At the end of 24 hour incubation, total RNA was isolated using TriZol reagent (Invitrogen). The isolated RNA is then reverse-transcribed using oligo(dT) primer and Mo-MLV reverse transcriptase (Invitrogen) with DNAse I (Ambion) treatment for 30 min. The one-tenth of the produced cDNA was amplified by PCR using Taq DNA polymerase (Invitrogen) and two reporter sequence-specific primers. The PCR products were fluorescently labeled by primer extension with 6-arboxyfluorescein (6-FAM) 5'-labeled reporter sequence-specific primer (2 min at 95 C, 20 s at 68 C and 10 min at 72 C) and these products were digested with 5U of HpaI (New England Biolabs) for 2h at 37 C. The fragments were purified using Qiaquick PCR columns (Qiagen), analyzed on an ABI 3130xL genetic analyzer (Applied Biosystems) with peak positions identified by using a set of X-rhodamine (ROX)-labeled MapMarker1000 molecular weight standards (BioVentures). The raw capillary electrophoresis data was processed using Attagraph software (Attagene).

The AC50 is the midpoint of the concentration-response curve, whichever way the signal moves.

Values joined by “and” are separate entries in the source; they are usually repeats but may differ in a detail not shown here. Equal entries are not always repeated. The list shows a part of the results, in another mix than the full data. Inconclusive results are not listed. More than one record can exist for a structure, and the calls need not agree. Active and inactive are the calls of the source. How the source made its calls, unless noted: active means hit-call score of the fitted dose curve at least 0.9, where 1 is the maximum; inconclusive means response in the unintended direction; inactive means score below 0.9.

With `O=C(Cl)OCCOC(=O)Cl`, the compound was classed as inactive in assay [1], in assay [2] and in assay [3].

For `CN(C(=O)Cc1cccc2occc12)[C@H]1CC[C@@]2(CCCO2)C[C@@H]1N1CCCC1`, the result in assay [1], in assay [4], in assay [5], in [6], in assay [7] and in [8] was inactive. In addition, the outcome in [9] was inactive.

Regarding `O=[P+](Oc1ccccc1)Oc1ccccc1`, the outcome in assay [1], in [3] and in assay [10] was inactive.

Regarding `O=[As]c1ccccc1` (stereo unspecified), the result in assay [2], in assay [3] and in assay [10] was inactive.

As to `CCCCOP(OCCCC)OCCCC`, the compound was classed as inactive in assay [1], in [2], in assay [3] and in assay [10].

As to `CC(C)OP(=S)(OC(C)C)SCCNS(=O)(=O)c1ccccc1`, the AC50 in [6] is active: 10.7 µM; in assay [8] it was active: 26 µM and active: 14.5 µM. In addition, the outcome in [6] was inactive.

With `O=C(Cl)Oc1ccccc1`, the call in [1], in [2], in assay [3], in assay [4], in assay [10] and in assay [5] was inactive. For the same compound, the outcome in assay [6], in assay [7], in [8] and in assay [9] was inactive.

Turning to `O=C1C2CC=CCC2C(=O)N1SC(Cl)(Cl)C(Cl)Cl` (stereo unspecified), the outcome in assay [1], in [3] and in assay [10] was inactive. Also, the AC50 in assay [5] is active: 13.5 µM; in [7], active: 14.4 µM; in [8] it was active: 14.5 µM; in assay [9], active: 6.17 µM.

Turning to `CCCCO[P+](=O)OCCCC`, the result in assay [2], in assay [3] and in [4] was inactive.

Regarding `CC(C)CCCCCCCOP(OCCCCCCCC(C)C)Oc1ccccc1`, the call in assay [1], in assay [3], in assay [4] and in assay [10] was inactive.

In the case of `N#CSc1ccc([N+](=O)[O-])cc1[N+](=O)[O-]`, the compound was called inactive in assay [1], in assay [2], in assay [3] and in assay [4].

As for `ClP(Cl)c1ccccc1`, the compound was classed as inactive in [3] and in assay [4].

Turning to `O=P(Cl)(Oc1ccccc1)Oc1ccccc1`, the call in [3] and in assay [10] was inactive.

With `O=[N+]([O-])c1ccc([N+](=O)[O-])cc1`, the compound was called inactive in [1], in assay [2], in assay [5], in assay [6], in assay [7] and in assay [8]. The AC50 in [9] was active: 7.21 µM.

`Cc1cc([N+](=O)[O-])cc([N+](=O)[O-])c1O`: the compound was classed as inactive in assay [1], in [4], in assay [10], in assay [5], in assay [6] and in [7]. Besides, the outcome in [8] was inactive. The half-maximal activity concentration (AC50) in assay [9] is active: 26.5 µM.

For the compound `O=[p+]1oc2ccccc2c2ccccc21` (stereo unspecified), the compound was classed as inactive in assay [10].

The values are drawn from PubChem BioAssay (EPA / NIEHS).
